Test results published in patent publication US20190048074A1 (Regeneron, published 2019).
Where a chain is given by its changes, count along the chain named. Names may count otherwise.

Tests used:
full-length human APLNR [1] = target: T1, full-length human APLNR (human, UniProt P35414 1-380); assay: cell-based or functional assay
T1 sequence: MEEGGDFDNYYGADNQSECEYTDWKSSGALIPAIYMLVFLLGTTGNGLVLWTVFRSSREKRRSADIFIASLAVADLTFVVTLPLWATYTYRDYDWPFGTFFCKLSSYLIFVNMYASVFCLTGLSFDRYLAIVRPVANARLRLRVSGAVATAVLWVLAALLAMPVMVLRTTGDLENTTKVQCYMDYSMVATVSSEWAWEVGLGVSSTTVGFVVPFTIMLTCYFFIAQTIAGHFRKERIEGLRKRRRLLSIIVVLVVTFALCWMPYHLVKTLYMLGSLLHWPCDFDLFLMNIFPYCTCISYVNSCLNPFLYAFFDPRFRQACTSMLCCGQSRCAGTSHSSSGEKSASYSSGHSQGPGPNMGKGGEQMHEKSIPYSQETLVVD

full-length human APLNR [2] = target: T1, full-length human APLNR; assay: cell-based or functional assay; remark: listed apart in the source
full-length human APLNR [3] = target: T1, full-length human APLNR; assay: FACS, HEK293/CRE-luc/hAPLNR cells
[4] = target: T2, full length cynomolgus APLNR (cynomolgus monkey (Macaca fascicularis), UniProt O97666 1-380 (rhesus entry)); assay: FACS, HEK293/CRE-luc/MfAPLNR cells
T2 construct: Stably expressed on HEK293/CRE-luc/MfAPLNR cells; also called MfAPLNR; mfAPLNR
T2 sequence: T1 sequence with F101S, L167F, E194D, I290V

full-length human APLNR [5] = target: T1, full-length human APLNR; assay: cell-based or functional assay; remark: listed apart in the source
[6] = target: T3, human Apelin receptor (hAPLNR) in PathHunter eXpress AGTRL1 CHO-K1 β-Arrestin cells (human, UniProt P35414 1-380); assay: cell-based or functional assay
T3 sequence: T1 sequence

[7] = target: T2, full length cynomolgus APLNR; assay: FACS, 10 µg/mL antibody, HEK293/CRE-luc/MfAPLNR cells
full-length human APLNR [8] = target: T1, full-length human APLNR; assay: FACS, 10 µg/mL antibody, HEK293/CRE-luc/hAPLNR cells
full-length human APLNR [9] = target: T1, full-length human APLNR; assay: cell-based or functional assay; remark: listed apart in the source

B1: H4H9093P-3-NVH3 (antibody, V domains shown)
VH: EVQLVESGGGLVKPGGSLRLSCAASGITFSNAWMSWVRQAPGKGLEWVGRFKGKADGGTVDYAAPVKGRFTISRDDSKNTLYLQMNSLKNEDTAVYYCTTGRITMVRGVLGYWGQGTLVTVSS
VL: not shown
notes: Antibody-apelin fusion protein; human IgG4 Fc; also called H4H9093P Nter VH fusion with (G4S)3 linker
B1 was tested, and the “% Activation at 100 nM mAb (10 µM Forskolin)” value (full-length human APLNR [1]) was 100%, the “EC50 [M] (10 µM Forskolin)” value (full-length human APLNR [1]) was 5.9e-11 M and the “Activating EC50 (M), pERK/total ERK assay” value (full-length human APLNR [2]) was 5.42e-10 M. The “Binding Ratio of Geom. Mean to Unstained Cells” value (shortened to “Binding Ratio of Geom. Mean”) (full-length human APLNR [3]) was 130 fold, the “Binding Ratio of Geom. Mean” value [4] was 49 fold and the “% Activation at 100 nM mAb (7.5 µM Forskolin)” value (full-length human APLNR [5]) was 100%. The “EC50 [M] (7.5 µM Forskolin)” value (full-length human APLNR [5]) was 8.7e-11 M, the “% Activation at 500 nM antibody or Apelin-antibody fusion” value [6] was 54% and the “EC50 [M], PathHunter β-Arrestin assay” value [6] was 2.1e-09 M.

B2: H4H9092P-1-NVH3 (antibody, V domains shown)
VH: B1 VH with F51I, G53S, A55V, V60I, N90T
VL: not shown
notes: Antibody-apelin fusion protein; human IgG4 Fc; also called H4H9092P Nter VH fusion with (G4S)3 linker
For B2, the “EC50 [M] (10 µM Forskolin)” value (full-length human APLNR [1]) was 7.3e-11 M, the “Binding Ratio of Geom. Mean” value (full-length human APLNR [3]) was 79 fold and the “Binding Ratio of Geom. Mean” value [4] was 31 fold.

B3: H4H9209N-4-NVH3 (antibody, V domains shown)
VH: EVQLLESGGGLVQPGGSLRLSCAASGFTFSNYAMNWVRQAPGRGLEWVSAIHYDGSNSYYADSVKGRFTISRDNSKNTLYLQMNSLRAEDTAIYYCAILSRVYWGQGTLVTVSS
VL: DIQMTQSPSSLSASVGDRVTITCRASQGINNYLAWFQQKPGKAPKSLIYATSSLQSGVPSKFSGSGSGTDFTLTISSLQPEDFATYYCQQYNSYPLTFGGGTKVEIK
B3 was tested, and the “% Activation at 100 nM mAb (10 µM Forskolin)” value (full-length human APLNR [1]) was 100%, the “EC50 [M] (10 µM Forskolin)” value (full-length human APLNR [1]) was 2.8e-11 M and the “Activating EC50 (M), pERK/total ERK assay” value (full-length human APLNR [2]) was 2.71e-10 M. For the same binder, the “% Activation at 100 nM mAb (7.5 µM Forskolin)” value (full-length human APLNR [5]) was 100% and the “EC50 [M] (7.5 µM Forskolin)” value (full-length human APLNR [5]) was 2.4e-11 M.

B4: H4H9092P (antibody, V domains shown)
VH: B1 VH with F51I, G53S, A55V, V60I, N90T
VL: not shown
notes: Fully human, human IgG4 Fc (H4H prefix)
For B4, the “Binding Ratio of Geom. Mean” value [7] was 20 fold, the “Binding Ratio of Geom. Mean” value (full-length human APLNR [3]) was 37 fold and the “Binding Ratio of Geom. Mean” value [4] was 20 fold. For the same binder, the “Binding Ratio of Geom. Mean” value (full-length human APLNR [8]) was 37 fold.

B5: H4H9093P (antibody, V domains shown)
VH: B1 VH
VL: not shown
notes: Fully human, human IgG4 Fc
B5 was tested, and the “Binding Ratio of Geom. Mean” value [7] was 31 fold, the “Binding Ratio of Geom. Mean” value (full-length human APLNR [3]) was 61 fold and the “Binding Ratio of Geom. Mean” value [4] was 31 fold. The “Binding Ratio of Geom. Mean” value (full-length human APLNR [8]) was 61 fold and the “% Inhibition at 100 nM mAb, in the presence of 100 ρM Apelin (at 10 µM Forskolin)” value (shortened to “% Inhibition at 100 nM mAb”) (full-length human APLNR [9]) was 16%.

B6: H4H9093P-4-NVH0 (antibody, V domains shown)
VH: B1 VH
VL: not shown
notes: Antibody-apelin fusion protein; human IgG4 Fc; also called H4H9093P Nter VH fusion with no linker
In the case of B6, the “Binding Ratio of Geom. Mean” value (full-length human APLNR [3]) is reported as 140 fold, the “Binding Ratio of Geom. Mean” value [4] is reported as 52 fold and the “% Inhibition at 100 nM mAb” value (full-length human APLNR [9]) is reported as 29%.

B7: H4H9209N-1-NVH0 (antibody, V domains shown)
VH: B3 VH
VL: B3 VL
In the case of B7, the “% Inhibition at 100 nM mAb” value (full-length human APLNR [9]) is reported as 13%.

B8: H4H9093P-1-NVK3 (antibody, V domains shown)
VH: B1 VH
VL: not shown
notes: Antibody-apelin fusion protein; human IgG4 Fc; also called H4H9093P Nter Vk fusion with (G4S)3 linker
With B8 the “% Activation at 100 nM mAb (10 µM Forskolin)” value (full-length human APLNR [1]) was 100%, the “EC50 [M] (10 µM Forskolin)” value (full-length human APLNR [1]) was 7.7e-09 M and the “Binding Ratio of Geom. Mean” value (full-length human APLNR [3]) was 31 fold. For the same binder, the “Binding Ratio of Geom. Mean” value [4] was 16 fold.

B9: H4H9092P-2-NVK3 (antibody, V domains shown)
VH: B1 VH with F51I, G53S, A55V, V60I, N90T
VL: not shown
notes: Antibody-apelin fusion protein; human IgG4 Fc; also called H4H9092P Nter Vk fusion with (G4S)3 linker
For B9, the “% Activation at 100 nM mAb (10 µM Forskolin)” value (full-length human APLNR [1]) was 100%, the “EC50 [M] (10 µM Forskolin)” value (full-length human APLNR [1]) was 2.9e-08 M and the “Binding Ratio of Geom. Mean” value (full-length human APLNR [3]) was 16 fold. For the same binder, the “Binding Ratio of Geom. Mean” value [4] was 6 fold.

B10: H4H9093P-2-CVK3 (antibody)
VH: B1 VH
light: not shown
notes: Antibody-apelin fusion protein; human IgG4 Fc; also called H4H9093P Cter Vk fusion with (G4S)3 linker
B10 was tested, and the “% Activation at 100 nM mAb (10 µM Forskolin)” value (full-length human APLNR [1]) was 100%, the “EC50 [M] (10 µM Forskolin)” value (full-length human APLNR [1]) was 9.2e-11 M and the “Binding Ratio of Geom. Mean” value (full-length human APLNR [3]) was 60 fold. The “Binding Ratio of Geom. Mean” value [4] was 28 fold.

B11: H4H9092P-3-CVK3 (antibody)
VH: B1 VH with F51I, G53S, A55V, V60I, N90T
light: not shown
notes: Antibody-apelin fusion protein; human IgG4 Fc; also called H4H9092P Cter Vk fusion with (G4S)3 linker
In the case of B11, the “% Activation at 100 nM mAb (10 µM Forskolin)” value (full-length human APLNR [1]) is reported as 100%, the “EC50 [M] (10 µM Forskolin)” value (full-length human APLNR [1]) is reported as 7.5e-10 M and the “Binding Ratio of Geom. Mean” value (full-length human APLNR [3]) is reported as 31 fold. The “Binding Ratio of Geom. Mean” value [4] was 15 fold.

B12: H4H9093P-5-NVH1 (antibody, V domains shown)
VH: B1 VH
VL: not shown
notes: Antibody-apelin fusion protein; human IgG4 Fc; also called H4H9093P Nter VH fusion with G4S linker
For B12, the “% Activation at 100 nM mAb (10 µM Forskolin)” value (full-length human APLNR [1]) was 100%, the “EC50 [M] (10 µM Forskolin)” value (full-length human APLNR [1]) was 4.6e-10 M and the “Binding Ratio of Geom. Mean” value (full-length human APLNR [3]) was 151 fold. The “Binding Ratio of Geom. Mean” value [4] was 54 fold.

B13: H4H9093P-6-NVH2 (antibody, V domains shown)
VH: B1 VH
VL: not shown
notes: Antibody-apelin fusion protein; human IgG4 Fc; also called H4H9093P Nter VH fusion with (G4S)2 linker
In the case of B13, the “% Activation at 100 nM mAb (10 µM Forskolin)” value (full-length human APLNR [1]) is reported as 100%, the “EC50 [M] (10 µM Forskolin)” value (full-length human APLNR [1]) is reported as 8.7e-11 M and the “Binding Ratio of Geom. Mean” value (full-length human APLNR [3]) is reported as 139 fold. The “Binding Ratio of Geom. Mean” value [4] was 47 fold.

B14: H4H9209N-2-NVH1 (antibody, human IgG4, V domains shown)
VH: B3 VH
VL: B3 VL
With B14 the “% Activation at 100 nM mAb (10 µM Forskolin)” value (full-length human APLNR [1]) was 100% and the “EC50 [M] (10 µM Forskolin)” value (full-length human APLNR [1]) was 2.9e-09 M.

B15: H4H9209N-3-NVH2 (antibody, V domains shown)
VH: B3 VH
VL: B3 VL
For B15, the “% Activation at 100 nM mAb (10 µM Forskolin)” value (full-length human APLNR [1]) was 100% and the “EC50 [M] (10 µM Forskolin)” value (full-length human APLNR [1]) was 6.5e-11 M.
